In patent EP4834351A1, “PHARMACEUTICAL COMPOSITION COMPRISING ENAVOGLIFLOZIN AS ACTIVE INGREDIENT FOR PREVENTING OR TREATING ALOPECIA AREATA” (dated 2026):

What was measured:
[1] = Dissolution test (Korean Pharmacopoeia Dissolution Test Method 2, Paddle Method); conditions: average particle size of enavogliflozin exceeds 15 um, dissolution medium 1.2
Procedure: Since a dissolution rate of an active ingredient in a pharmaceutical composition affects a maximum blood concentration (Cmax) and an area under a blood concentration-time curve (AUC) upon drug administration, conversely speaking, it is important to adjust a dissolution rate of a pharmaceutical composition to implement an appropriate Cmax and AUC. Since enavogliflozin has a Tmax of 1 to 2 hours, a drug absorption rate in the stomach is judged to be important. The dissolution rate is measured under a condition of a dissolution medium 1.2 by a Korean Pharmacopoeia Dissolution Test Method 2 (Paddle Method). Specific conditions may refer to the following experimental examples.

ASC [2] = assay: Histological analysis (staining) of skin, ASC; conditions: enavogliflozin 1 mg/kg; 12 weeks; compared to vehicle group
From the text: (§1) At 12 weeks, which is a time point of completion of test substance administration, skin was excised and then fixed in a 10% formalin solution. After manufacturing a paraffin block, a tissue was cut to manufacture a slide, and then stained using an ImmPRESS Anti-Rabbit Ig Kit (Catalog No. MP-7401) or an ImmPRESS Anti-Rat Ig Kit (Catalog No. MP-7404). As a primary antibody, NLRP3 (768319, Invitrogen, CA, USA), caspase1 (Ab138483, Abcam, Cambridge, UK), ASC (NBP1-78977, Novusbio, CO, USA), and IL-1β (AF5103, Affinity biosciences, OH, USA) were used. For reading of a tissue, a tissue slide was photographed at 100 magnification using an optical microscope (PANORAMIC MIDI II), and then an expression level of each slide was read using Case Viewer software.

NLRP3 [3] = assay: Histological analysis (staining) of skin, NLRP3; conditions: enavogliflozin 1 mg/kg; 12 weeks; compared to vehicle group
From the text: as §1

Caspase-1 [4] = assay: Histological analysis (staining) of skin, Caspase-1; conditions: enavogliflozin 1 mg/kg; 12 weeks; compared to vehicle group
From the text: as §1

IL-1β [5] = assay: Inflammatory factor protein expression (SDS-PAGE / immunoblot), IL-1β; conditions: enavogliflozin 0.1 and 1 mg/kg treated groups; 12 weeks; skin lysate; compared to vehicle group
Procedure: (§2) At 12 weeks, which is a time point of completion of test substance administration, skin was excised and lysed, and then a protein concentration was measured using a BCA protein assay kit (Bio-Rad, Hercules, CA, USA). A protein (20 µg) was separated by SDS-PAGE (polyacrylamide gel electrophoresis) and adsorbed onto a PVDF (polyvinylidene fluoride) membrane (Millipore Corp, Bedford, MA). A membrane was reacted in PBS containing 0.1% Tween-20 and 5% skim milk (non-fat milk), and reacted using a primary antibody diluted with 0.2% BSA (in PBS). After washing 3 times, a membrane was reacted with an HRP-conjugated secondary antibody (anti-rabbit IgG antibody (PI-1000) or anti-mouse IgG antibody (PI-2000), Vector Labs Inc., Burlingame, CA, USA), and a band was visualized with an ECL advance kit (ATTO, Tokyo, Japan).
(§3) Prism 10.0 software (GraphPad Software Inc., San Diego, CA, USA) was used for statistical analysis of data. Experimental results were expressed as mean±standard error of the mean (SEM). As a statistical method, a one-way analysis of variance (One-way ANOVA) was performed to verify a difference between each group, and a post hoc test for each type used a verification method through a Tukey function or Dunn's multiple comparison verification method. A significance level was set to p<0.05.

ASC [6] = assay: Inflammatory factor protein expression (SDS-PAGE / immunoblot), ASC; conditions: enavogliflozin 0.1 and 1 mg/kg treated groups; 12 weeks; skin lysate; compared to vehicle group
Procedure: as §2, §3

IL-1β [7] = assay: Histological analysis (staining) of skin, IL-1β; conditions: enavogliflozin 1 mg/kg; 12 weeks; compared to vehicle group
From the text: as §1

NLRP3 [8] = assay: Inflammatory factor protein expression (SDS-PAGE / immunoblot), NLRP3; conditions: enavogliflozin 0.1 and 1 mg/kg treated groups; 12 weeks; skin lysate; compared to vehicle group
Procedure: as §2, §3

[9] = Plasma BHB concentration in alopecia areata mouse model; conditions: enavogliflozin 1 mg/kg; after 12 weeks, 24 hours fasting; no statistical significance compared to vehicle group
Procedure: (§4) An 8-week-old C3H/Hej female mouse was obtained, sufficiently supplied with solid feed (without antibiotics) and water until an experiment day, adapted in an environment of a temperature of 23±2°C, humidity of 55±10%, and a 12-hours light-dark cycle, and then used in an experiment.
(§5) An alopecia areata model was manufactured using a lymph node cell injection method. A lymph node cell was isolated from a mouse (donor) in which alopecia areata occurred, proliferated using Dynabead Mouse T-activator CD3/CD28, Human Recombinant IL-2, Mouse Recombinant IL-7, and Mouse Recombinant IL-15, and then injected into a C3H/Hej mouse (recipient) of 10 weeks of age or older by 1.5x10^7 cells/mouse intra-dermal injection to manufacture an alopecia areata model.
(§6) In order to evaluate alopecia areata efficacy of enavogliflozin in an alopecia areata mouse model manufactured by a lymph node cell injection method, a test group was set and evaluated as shown in Table 1 below.
An administration period of a test substance is 12 weeks, and a vehicle group and an enavogliflozin group were orally administered (P.O. injection) once every day (QD). […]
(§7) Prism 10.0 software (GraphPad Software Inc., San Diego, CA, USA) was used for statistical analysis of data. Experimental results were expressed as mean±standard error of the mean (SEM). […]

[10] = test system: alopecia areata mouse model; assay: Disease-free ratio in alopecia areata mouse model (lymph node cell injection method); conditions: cell also prints n/N
Procedure: as §4, §5, §6
As a test substance, enavogliflozin 0.1 mg/kg and 1 mg/kg were used. A vehicle group was prepared in 0.5% Carboxymethyl cellulose sodium salt with 1% Tween80, stored at 4°C, and used.
At 4 weeks after injecting a lymph node cell into a mouse, upon visual confirmation of alopecia areata, individuals were selected and divided into groups, and administration of a test substance was started.
An administration period of a test substance is 12 weeks, and a vehicle group and an enavogliflozin group were orally administered (P.O. injection) once every day (QD).
as §3, with “function (Tukey's test)” for “function”, “method (Dunn's multiple comparison test).” for “method.”

[11] = test system: pathogenic cell (CD44s-hi); assay: Flow cytometry analysis of lymph node, pathogenic cell ratio; conditions: enavogliflozin-administered group compared to vehicle group; completion of test
Procedure: (§8) Skin-Draining Lymph Node cells of a mouse obtained at a time point of completion of a test were taken out of a nitrogen tank and used for flow cytometry analysis. Cells were analyzed by staining antibodies of L/D, CD3, CD4, CD8, CD44, CD49d, CD62L, and NKG2D without additional stimulation. A cell surface protein was quantitatively analyzed for stained cells using a FACSymphony A1 (Becton, Dickinson and Company, BD) apparatus. Thereafter, MFI and a positive cell population were confirmed using FlowJo (Becton, Dickinson and Company, BD, v. 10.0).
(§9) Experimental results were expressed as mean±standard error of the mean (SEM). GraphPad Prism version 7 software was used to confirm statistical significance. Significance verification of flow cytometry data used a Mann-Whitney test, and it was considered statistically significant when a p value was 0.05 or less.

Caspase-1 [12] = assay: Inflammatory factor protein expression (SDS-PAGE / immunoblot), Caspase-1; conditions: enavogliflozin 0.1 and 1 mg/kg treated groups; 12 weeks; skin lysate; compared to vehicle group
Procedure: as §2, §3

NKG2D = assay: Flow cytometry analysis of lymph node, NKG2D MFI in pathogenic cell; conditions: enavogliflozin 1 mg/kg; completion of test; compared to vehicle group
Procedure: as §8, §9

[13] = test system: alopecia areata mouse model; assay: AA lesion size in alopecia areata mouse model; conditions: 12 weeks of final administration, compared to vehicle group
Procedure: as §4, §5
In order to evaluate alopecia areata efficacy of enavogliflozin in an alopecia areata mouse model manufactured by a lymph node cell injection method, a test group was set and evaluated as shown in Table 1 below. […]
A size of alopecia areata was photographed once every 2 weeks using a digital camera (DSLR), and a ratio of an area where a symptom occurred to a total area of an individual was expressed as % by image J (National Institutes of Health). […]
as §7

Compound: OC[C@H]1O[C@@H](c2cc(Cc3ccc(C4CC4)cc3)c(Cl)c3c2CCO3)[C@H](O)[C@@H](O)[C@@H]1O
- 5-minute dissolution rate ([1]; % of total content of enavogliflozin): less than 40%
- 30-minute dissolution rate [1]: less than 80%
- expression of ASC in skin (staining) (ASC [2]): decreased
- expression of NLRP3 in skin (staining) (NLRP3 [3]): decreased
- expression of Caspase-1 in skin (staining) (Caspase-1 [4]): decreased
- IL-1β protein expression (IL-1β [5]): significantly decreased in a dose-dependent manner
- ASC protein expression (ASC [6]): significantly decreased in a dose-dependent manner
- expression of IL-1β in skin (staining) (IL-1β [7]): decreased
- NLRP3 protein expression (NLRP3 [8]): significantly decreased in a dose-dependent manner
- plasma BHB concentration [9]: trend of increasing
- Disease-free ratio ([10]; ENA 0.1 mg/kg PO QD, week 0 of administration): 3/6 (50%)
- Disease-free ratio ([10]; ENA 0.1 mg/kg PO QD, week 2): 2/6 (33.3%)
- Disease-free ratio ([10]; ENA 0.1 mg/kg PO QD, week 3): 2/6 (33.3%)
- Disease-free ratio ([10]; ENA 0.1 mg/kg PO QD, week 4): 1/6 (16.7%)
- Disease-free ratio ([10]; ENA 0.1 mg/kg PO QD, week 5): 1/6 (16.7%)
- Disease-free ratio ([10]; ENA 0.1 mg/kg PO QD, week 8): 1/5 (20%)
- Disease-free ratio ([10]; ENA 0.1 mg/kg PO QD, week 10): 1/5 (20%)
- Disease-free ratio ([10]; ENA 0.1 mg/kg PO QD, week 12): 1/5 (20%)
- Disease-free ratio ([10]; ENA 1 mg/kg PO QD, week 0 of administration): 3/6 (50%)
- Disease-free ratio ([10]; ENA 1 mg/kg PO QD, week 2): 2/6 (33.3%)
- Disease-free ratio ([10]; ENA 1 mg/kg PO QD, week 3): 3/6 (50%)
- Disease-free ratio ([10]; ENA 1 mg/kg PO QD, week 4): 3/6 (50%)
- Disease-free ratio ([10]; ENA 1 mg/kg PO QD, week 5): 3/6 (50%)
- Disease-free ratio ([10]; ENA 1 mg/kg PO QD, week 8): 2/6 (33.3%)
- Disease-free ratio ([10]; ENA 1 mg/kg PO QD, week 10): 2/6 (33.3%)
- Disease-free ratio ([10]; ENA 1 mg/kg PO QD, week 12): 1/6 (16.7%)
- ratio of a pathogenic cell (CD44s-hi) in a lymph node cell [11]: did not show a significant ratio decrease
- Caspase-1 protein expression (Caspase-1 [12]): significantly decreased in a dose-dependent manner
- MFI value of NKG2D in a pathogenic cell (NKG2D): significant decrease
- size in which alopecia areata occurred ([13]; enavogliflozin 0.1 mg/kg PO QD): size in which alopecia areata occurred was small
- size in which alopecia areata occurred ([13]; enavogliflozin 1 mg/kg PO QD): significant difference was shown compared to the vehicle group
